The numbers were not newly measured in patent US10874626B2, “Formulation for use in a method of treatment of pain” (NEVAKAR Inc., priority 2016, dated 2020), which cites them from elsewhere.

For the series the following is noted: oral, cited from earlier work.

Read-outs that look alike come from different tables or passages of the source.

For the substance “1-(aminomethyl) cyclohexane acetic acid [Gabapentin]”, the bioavailability of gabapentin entry runs as follows: (900 mg/day given in 3 divided doses) “approximately 60%”; (1200 mg/day given in 3 divided doses) ~47%; (3 divided doses, fourth of four values printed for five doses (3600 or 4800 mg/day)) ~27%; (3 divided doses, third of four values printed for five doses (2400 or 3600 mg/day)) ~33%.
